Test results published in patent US11274348B2, “Use of biomarkers in determining susceptibility to disease treatment” (SINGAPORE HEALTH SERVICES PTE LTD, priority 2016, dated 2022).

Key:
[1] = test system: NCC-HN19 and NCC-HN64 (A/A); assay: Gefitinib sensitivity after EGFR isoform D knockdown (shIsoD); assay type: cell-based, human; settings: shIsoD compared to non-targeted controls
[2] = test system: NCC-HN1 and NCC-HN43 (G/G genotype); assay type: cell-based, human
[3] = test system: EGFR, AKT, ERK and S6 phosphorylation in NCC-HN19 and NCC-HN64 (A/A genotype); assay: Western blot of EGFR pathway activation; assay type: cell-based, human
[4] = test system: phosphor-AKT, phosphor-S6 and phosphor-ERK in NCC-HN1 and NCC-HN43 (G/G genotype); assay: Western blot of EGFR pathway activation; assay type: cell-based, human; settings: G/G genotype lines
[5] = test system: oral squamous cell cancer; assay: Clinical response of oral squamous cell cancer patients to gefitinib; assay type: in vivo, human; settings: three patients, all A/A genotype
[6] = test system: head and neck squamous cell cancers (HNSCC), recurrent, metastatic disease; settings: monotherapy, metastatic setting; cited from earlier work

Row | Compound | gefitinib sensitivity after isoform D knockdown [1] | gefitinib sensitivity after isoform D knockdown [2] | gefitinib sensitivity promoted by EGFR-AS1 knock-down, with concurrent isoform D knockdown [2] | EGFR, AKT, ERK and S6 phosphorylation ([3]; after treatment with therapeutic doses of gefitinib) | downstream pathway modulation after reduced expression of isoform D ([3]; shIsoD relative to non-targeting controls, AA-genotype lines) | effect on phosphor-ERK [4] | effect on phosphor-AKT and phosphor-S6 levels ([4]; in contrast to A/A lines) | response of EGFR wild type patients [5] | response rates [6]
1 | COc1cc2ncnc(Nc3ccc(F)c(Cl)c3)c2cc1OCCCN1CCOCC1 [gefitinib] | rendered more resistant | no significant effect | abrogated | significant and consistent reduction | attenuated the impact of gefitinib on downstream pathway modulation | modest, if any effect | required much higher drug doses | exceptional responders | –
2 | cetuximab | – | – | – | – | – | – | – | – | 13%
